Entries after “also recorded” stand apart in the source; their conditions may differ.
Key:
SD rats [1] = assay: toxicity test in SD rats, four-week consecutive intragastric administration; conditions: based on nontoxic dosage, four-week ig
Protocol: 2. […] The tested samples are formulated into suspensions by milling with 0.5% CMC—Na; intragastric administration every day (10 ml/kg) for consecutive 4 weeks; on each day, after administration, the general conditions of the animals are observed, and weight and amount of ingestion are determined once every week. In 24 hours after the last administration, the rats are fasted overnight, blood samples are withdrawn via femoral arteries, and the rats are dissected, and the indexes of blood cytology and biochemics, gloss anatomy and histopathological examination are preformed.

SD rats [2] = assay: long-term toxicity test in SD rats, thirteen-week consecutive intragastric administration and four-week convalescence; conditions: based on nontoxic dosage, 13-week ig, listed as R:S=6:1 mixture
Protocol: 2. […] The tested samples are formulated into suspensions by milling with 0.5% CMC—Na; intragastric administration (10 ml/kg) every day for consecutive 13 weeks; on each day, after administration, the general conditions of the animals are observed, and weight and amount of ingestion are determined once every week. In 24 hours after the last administration, half of rats in each tested group are fasted overnight, blood samples are withdrawn via femoral arteries, and the rats are dissected, and the indexes of blood cytology and biochemics, gloss anatomy and histopathological examination are preformed. The administration to remaining half rats is stopped, and the convalescence is observed; general conditions are observed and weight and amount of ingestion are determined once every week. After 4 weeks, the observation is complete, and the half of rats in each tested group are fasted overnight, blood samples are withdrawn via femoral arteries, and the rats are dissected, and the indexes of blood cytology and biochemics, gloss anatomy and histopathological examination are preformed.

R-10,11-dihydro-alpha-methyl-10-oxo-dibenzo[b,f]tiazem-2-acetic acid:S-10,11-dihydro-alpha-methyl-10-oxo-dibenzo[b,f]tiazem-2-acetic acid (6:1) [S:R = 1:6]
safety compared with RS-Zaltoprofen (SD rats [1]; listed as R:S=6:1): four times or more | safety compared with RS-Zaltoprofen (SD rats [1]; listed as R:S=6:1 mixture): more than four times greater | safety compared with RS-Zaltoprofen (SD rats [2]): four times or more; also recorded: more than four times greater

— US20110224276A1, “OPTICAL ISOMER OF PHENYLPROPIONIC ACID AND ITS MEDICINAL USE” (priority 2008, published 2011)
